Apparent affinities of Ab-14 variants for a coronavirus HR2 peptide

Binding partner: SARS-CoV-2 spike HR2 peptide, sequence PDVDLGDISGINAS.

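The starting antibody came from a phage panning campaign against this peptide. AAYL49 was designed without a model: most single CDR substitutions and a random sample of double and triple ones. The scFvs were displayed on barcoded MATa yeast, the peptide on MATalpha yeast. After mating in shaken culture at 30 °C for 16 h, diploids were selected and their barcode pairs sequenced. The ratio of observed to expected reads was calibrated, replicate by replicate, on BCL2-family standards whose Kd was known from biolayer interferometry. Mating was done three times.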

Parent scFv Ab-14: VH joined to VL by three GGGGS repeats. Changes lie in the heavy chain CDRs alone.
VH: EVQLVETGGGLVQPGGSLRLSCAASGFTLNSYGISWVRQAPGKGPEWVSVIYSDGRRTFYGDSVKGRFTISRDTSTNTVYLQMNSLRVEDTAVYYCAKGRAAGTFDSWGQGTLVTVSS
VL: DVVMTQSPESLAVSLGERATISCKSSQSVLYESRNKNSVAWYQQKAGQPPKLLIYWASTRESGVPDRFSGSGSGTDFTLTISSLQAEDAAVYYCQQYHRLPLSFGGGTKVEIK

The parent's heavy chain CDRs are GFTLNSYGIS, VIYSDGRRTFYGDSVK, GRAAGTFDS; each variant's own CDRs replace them letter for letter. Kd is apparent (estimated from mating counts) and averaged on the log scale over replicates with a signal. Smaller is tighter. A pair that was not seen in any replicate is written "nd"; this usually means weak binding, but a binder can also be missed. For reference, the parent read 4.4 nM as the reference entry and 13 µM (one replicate of three) as a member of this library. Nonspecific signal, from three strains lacking the peptide, appeared in 15% of pairings of library AAYL49, centred on 11 µM (5% of these signals below 680 nM); values are not corrected for it.

| CDR-H1 | CDR-H2 | CDR-H3 | Kd | replicates with signal |
|---|---|---|---|---|
| GFTLNSYGIS | VIYSDGRLTFEGDSVK | GTAAGTFDS | 410 µM | 3 of 3 |
| VFTLNSYGIG | VIYSDGRRTFIGDSVK | GRAAGTFDS | nd | 0 of 3 |
| GFTLNSYGIS | VIYSDGRRTFYGDSSC | GRAAGTFWS | nd | 0 of 3 |
| GFTLNSYGSS | VIYSGGRRTFYGDSVK | GRIAGTFDS | nd | 0 of 3 |
| MFTFNSYGIS | VIYSDARRTFYGDSVK | GRAAGTFDS | nd | 0 of 3 |
| GFTLNSYGNS | VIYSDGRRTFYGDLVK | GRAQGTFDS | nd | 0 of 3 |
| GFTLNSRGIS | VIRSDGRRTFDGDSVK | GRAAGTFDS | nd | 0 of 3 |
| GFTLNDYGIS | VIYSDGRRTFYGDSVK | GRAAGTQSS | nd | 0 of 3 |
| GFTLNSYGIS | MIYSDGRRTFYTDSVK | GRAAGTWDS | 12 µM | 1 of 3 |
| GFTLNSYGIS | NIYRDGRRTHYGDSVK | GRAAGTFDS | nd | 0 of 3 |
| GFTLNSFGIS | VSYSDGRRTFYGASVK | GRAAGTFDS | nd | 0 of 3 |
| GFTLNKYGIS | VIYSDGRRTFYGDSVQ | GGAAGTFDS | 58 nM | 3 of 3 |
| GFTLNSYWIS | VIYSDGRRTFYGDSVK | GYAAGTFDM | nd | 0 of 3 |
| GNTLNTYGIS | VIYSDGRRTFYGDSCK | GRAAGTFDS | 220 nM | 3 of 3 |
| GFTGNSYCIS | VIYSDGRRTFYGDSVK | GRAAGTFDI | nd | 0 of 3 |
| GFTLNSKVIS | VIYSDGRRTFYGDSVK | GRARGTFDS | nd | 0 of 3 |
| GFTLNSCGIS | VIYSDGRRTFYGDSCK | GRWAGTFDS | 3.1 µM | 3 of 3 |
| GFTLESYGIQ | VIYSDMRRTFYGDSVK | GRAAGTFDS | nd | 0 of 3 |
| GFTLNSYGIS | VIYSDGRRSFYGDSRK | GRAAGTDDS | 820 nM | 1 of 3 |
| GFTLNSYGIS | VIYSDGNRTFHGDSVK | GRAAGTFDW | 14 µM | 2 of 3 |
| GFTLNSYGDS | VIYSDMRRTAYGDSVK | GRAAGTFDS | nd | 0 of 3 |
| GFTLNSYGRS | VIYTDGRRTFYGDSVK | GRAAGTFDS | 5.9 µM | 1 of 3 |
| GFTLNSYGIS | VIYSDGRRTFNGDSVK | TRAARTFDS | 45 µM | 2 of 3 |
| GFTLNSYGIS | FIYYLGRRTFYGDSVK | GRAAGTFDS | nd | 0 of 3 |
| GFTLRSYGIS | WIYVDGRRTFYGDSVK | GRAAGTFDS | 850 nM | 1 of 3 |
| GFTLNSYGIS | VIYSDGRRTFKSDSVK | GRAAGTSDS | nd | 0 of 3 |
| GFTLNSYGIS | VIYSDGASTFYGDSVK | GRAAGTYDS | 11 µM | 2 of 3 |
| GFFLNSYGIS | VIYSDGRRTFYGDSVK | GRAAGTVDS | 440 nM | 2 of 3 |
| GQTLNSYGIS | VIYSDGRRTFYGDSVK | GRAALTMDS | 4.2 µM | 2 of 3 |
| GFTLNSYGIS | VSYSDGRRTFYGDLVK | GRAAGTFDV | 38 µM | 3 of 3 |
| GFTLMSYGIS | VIYSDLRRTFTGDSVK | GRAAGTFDS | 65 µM | 2 of 3 |
| GFTLNSYGIH | VIKSDGRRTFYGDSVK | GRAAGTFDD | nd | 0 of 3 |
| GCTLNSYRIS | VIYFDGRRTFYGDSVK | GRAAGTFDS | nd | 0 of 3 |
| GFTLNKYGIS | VIYSDGRLTFCGDSVK | GRAAGTFDS | 13 µM | 1 of 3 |
| GFTLNFYGIS | VIYSDNRRTFYGDSVK | GRAAGGFDS | nd | 0 of 3 |
| GFTLNSYGIR | VIYSDGRRTEYGDSVK | GRAAYTFDS | 5.3 µM | 1 of 3 |
| GFTGNSYIIS | VIYSDGRRTFYGDSVK | GRAAGRFDS | 1.6 µM | 1 of 3 |
| GFILNSYGIS | VIYSDTRRTFYGDSVK | GRAAGIFDS | 2.6 µM | 1 of 3 |
| GFTLNSYGIS | VIYSDNRRTFYGDSVK | GRAAPTFDL | 180 nM | 1 of 3 |
| GFPLFSYGIS | VLYSDGRRTFYGDSVK | GRAAGTFDS | nd | 0 of 3 |
| GFTLNSYGIS | VIYSDGERTFYVDSVK | GRAPGTFDS | 43 nM | 3 of 3 |
| GFTLNSYGIS | VDYSDGRRTFYIDSVK | GRAAGTTDS | nd | 0 of 3 |
| GFTLNSYGIC | VIYSDGRRTFYGDSVK | VRAAGTFDQ | 5.1 µM | 2 of 3 |
| GFTFNRYGIS | VIYSDGRRTFYGDSVK | GRAAGTFDG | 29 µM | 2 of 3 |
| GFTLQSMGIS | VIYSDGRRTFYGDSVK | GRAAGHFDS | 1.2 µM | 1 of 3 |
| GFTLNSYGIS | VIYSDGRRTFYHDMVK | GRFAGTFDS | 1.0 µM | 3 of 3 |
| GFTLNSYGIS | AIYSDARRTFYGDSVP | GRAAGTFDS | 64 µM | 1 of 3 |
| NFTLNSPGIS | VIYSGGRRTFYGDSVK | GRAAGTFDS | nd | 0 of 3 |
| GFTLNSYGIS | VIYHDGRRTFYGDSVK | GRAAGTSDS | 15 nM | 3 of 3 |
| GHTLNSYGIS | VIYSDGRRTSYGDSNK | GRAAGTFDS | 610 µM | 1 of 3 |
| GFTLNSYGIS | VIYSDGRRTFYKDSVR | GDAAGTFDS | 1.9 nM | 3 of 3 |
| GFTLNSYGIS | VIYSDGRRTFYGNSVK | GAAAGKFDS | nd | 0 of 3 |
| GFTLNSYGIS | RIDSDGRRTFYGDSVT | GRAAGTFDS | 770 µM | 1 of 3 |
| GFTTNSYGIS | EIYSDGRRTFYGDSVG | GRAAGTFDS | 19 µM | 2 of 3 |
| GFTLNSYGIK | IIYSDGRRTFYGDSVF | GRAAGTFDS | nd | 0 of 3 |
| GFTVNSYGIS | VIVSDGRRTFYGDSVK | GRAAGWFDS | nd | 0 of 3 |
| GFTLNSYGIS | VIMSDARRTFYGDSMK | GRAAGTFDS | 24 µM | 1 of 3 |
| GFTLNSYGIS | VITSDGRRKFYGDSVK | GRAAKTFDS | 650 µM | 1 of 3 |

Reference: Engelhart et al. 2022, doi:10.1038/s41597-022-01779-4. File: FLAb, binding data.